# Reported melting point values for industrial, environmental and drug-like chemicals

Source: data files of OPERA 2.9 (Mansouri et al.), github.com/kmansouri/OPERA.

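The OPERA project collected these measurements from public sources as training and test data for property models. The files give a single number for a compound and property, which may rest on several reports. Method and conditions are not stated for these values. A value may pool stereoisomers or salt forms, and the file does not say which form was measured. Unmarked limits or estimates from the upstream databases cannot be ruled out.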

Melting points are in °C.
"–" marks a cell with nothing listed here.

SMILES	name	mp (°C)
CCCn1c(N)nc2ccccc21	1-Propyl-1H-benzoimidazol-2-ylamine	115
NC(=O)Cc1nc2ccccc2s1	2-(1,3-Benzothiazol-2-yl)acetamide	168
FC(F)(F)C(F)(F)C(F)(F)C(F)(F)C(F)(F)C(F)(F)CC[Si](Cl)(Cl)Cl	Trichloro((perfluorohexyl)ethyl)silane	-21
CCN(CC)S(=O)(=O)c1ccc(Cl)c([N+](=O)[O-])c1	4-chloro-N,N-diethyl-3-nitrobenzenesulfonamide	89.5
CCCCCCCCCCCCSCCC(=O)OCC(COC(=O)CCSCCCCCCCCCCCC)(COC(=O)CCSCCCCCCCCCCCC)COC(=O)CCSCCCCCCCCCCCC	–	50
CCCCCCCCCCCC(=O)OCCCCCCCC	Dodecanoic acid, octyl ester	10.1
O=c1c(Cl)c(Cl)cnn1-c1ccc(S(=O)(=O)Cl)cc1	–	145
CC(C)(C)C(=O)OC(=O)C(C)(C)C	Trimethylacetic anhydride	2.13
C1C[C@@H]2[C@H]3CC[C@H](C3)[C@@H]2C1	Octahydro-exo-4,7-methano-1H-indene	-89.97
COC(=O)c1sccc1S(N)(=O)=O	Methyl 3-sulfamoylthiophene-2-carboxylate	121
O=C1C(=O)N(Cc2ccccc2Cl)c2ccccc21	1-(2-chlorobenzyl)-1H-indole-2,3-dione	131
OC(CCl)(CCl)c1ccc(F)cc1F	–	57
CCc1nc2ccccc2c(C(=O)O)c1C	2-Ethyl-3-methyl-quinoline-4-carboxylic acid	191
C=C[Si](O/N=C(\C)CCC)(O/N=C(\C)CCC)O/N=C(\C)CCC	2-Pentanone, O,O',O''-(ethenylsilylidyne)trioxime	-62.5
NC1c2ccccc2-c2ccccc21	9-Aminofluorene	44
CC1=[N+](C)c2ccc3ccccc3c2C1(C)C.Cc1ccc(S(=O)(=O)[O-])cc1	–	211
N#CCc1ccc(NC(=O)CCl)cc1	2-chloro-N-[4-(cyanomethyl)phenyl]acetamide	123
Nc1ccccc1C(=O)Nc1cccc(Cl)c1	2-amino-N-(3-chlorophenyl)benzamide	133
Cc1cc(Nc2cc(S(=O)(=O)[O-])c(N)c3c2C(=O)c2ccccc2C3=O)cc(S(=O)(=O)NCCO)c1C.[Na+]	–	333
Cc1ccc(-c2ncc(Cl)cc2-c2ccc(S(C)(=O)=O)cc2)cn1.Cc1ccc(S(=O)(=O)O)cc1	–	216.5
CC[C@H]1OC(=O)[C@H](C)C(=O)[C@H](C)[C@@H](O[C@@H]2O[C@H](C)C[C@H](N(C)C)[C@H]2O)[C@](C)(OC)C[C@@H](C)C(=O)[C@H](C)[C@H]2N(CCCCn3cnc(-c4cccnc4)c3)C(=O)O[C@]12C	Telithromycin	187.5
CC(C)(C)c1ccc(CCC=O)cc1	3-(4-tert-Butylphenyl)propanal	-10.7
C=CC(=O)NCOCCCC	N-(Butoxymethyl)acrylamide	-59.25
CC(C)(C)N(NC(=O)c1ccccc1)C(=O)c1ccccc1F	N'-Benzoyl-2-fluoro-N-(2-methyl-2-propanyl)benzohydrazide	184
CCOC(=O)Cc1ccccc1Br	Ethyl 2-(2-bromophenyl)acetate	36.5
COC(=O)c1sc(Cl)nc1Cl	Methyl 2,4-dichloro-1,3-thiazole-5-carboxylate	55
CCOC(=O)c1c(N)sc(C)c1CC	ethyl 2-amino-4-ethyl-5-methylthiophene-3-carboxylate	46
CCCCC(CC)COC(=O)CSCC(=O)OCC(CC)CCCC (configuration not stated)	Acetic acid, 2,2'-thiobis-, 1,1'-bis(2-ethylhexyl) ester	-64.35
CC(=O)N1c2ccc(S(=O)(=O)Cl)cc2CC1C (configuration not stated)	1-Acetyl-2-methyl-2,3-dihydro-1H-indole-5-sulfonyl chloride	113
COc1ccc(C(=O)N(NC(=O)c2ccccc2)C(C)(C)C)cc1OC	N'-Benzoyl-N-tert-butyl-3,4-dimethoxybenzohydrazide	206
Cc1cccc(OC(C)C(=O)O)c1C (configuration not stated)	2-(2,3-dimethylphenoxy)propanoic acid	124
NC(=O)/C(=C\c1ccc([N+](=O)[O-])o1)c1ccco1	AF-2	151.5
CC(C)(C)OC(=O)NC1CC1	tert-Butyl cyclopropylcarbamate	63
COC(=O)C(=O)CC(=O)c1cccnc1	methyl 2,4-dioxo-4-pyridin-3-ylbutanoate	114
Cc1cc(-c2cc(C(C)(C)C)cc(C(C)(C)C)c2)c(O)c(-c2cc(C(C)(C)C)ccc2OCCCOc2ccc(C(C)(C)C)cc2-c2cc(C)cc(-c3cc(C(C)(C)C)cc(C(C)(C)C)c3)c2O)c1	–	186
NC(=S)Cc1nc2ccccc2[nH]1	(1H-Benzimidazol-2-yl)ethanethioamide	206
O=C(O)CCc1nnc(-c2ccccc2)o1	3-(5-phenyl-1,3,4-oxadiazol-2-yl)propanoic acid	145
CCCCCCCCCCCCCCCCCCOC(=O)CCCCCCCCCCCCCCCCC	Stearyl stearate	58.95
O=C(O)CSC(O)C(=O)c1ccccc1 (configuration not stated)	[(1-hydroxy-2-oxo-2-phenylethyl)thio]acetic acid	114
CCN(CC)S(=O)(=O)c1ccc(CCC(=O)O)cc1	3-[4-(diethylsulfamoyl)phenyl]propanoic Acid	151
c1ccc(CCNc2nc(-c3ccccc3)cs2)cc1	Fanetizole	116
O=C(CCl)Nc1ccc(OCc2ccccc2)cc1	N-(4-Benzyloxy-phenyl)-2-chloro-acetamide	119
Nc1n[nH]c(-c2cccc(Br)c2)n1	5-(3-bromophenyl)-4H-1,2,4-triazol-3-amine	220
Brc1ccc(Oc2ccc(Br)c(Br)c2)c(Br)c1	2,3',4,4'-Tetrabromodiphenyl ether	63
O=C(NC1CCN(CCc2c[nH]c3ccccc23)CC1)c1ccccc1	Indoramin	209
O=C(O)CNc1ccc(Cl)cc1	N-(4-Chlorophenyl)glycine	143
CC1CCN(c2ccc([N+](=O)[O-])cc2C(=O)O)CC1	2-(4-methylpiperidin-1-yl)-5-nitrobenzoic acid	161
CCCCC[C@H]1CC[C@H](c2ccc(CCC)cc2)CC1	Benzene, 1-(trans-4-pentylcyclohexyl)-4-propyl-	-9.6
C/C=C/c1ccc(OC(C)=O)c(OC)c1	Isoeugenyl acetate, (E)-	81
CCCCn1c(N)cc(=O)[nH]c1=O	6-Amino-1-butyl-1H-pyrimidine-2,4-dione	239
O=C(O)c1sc2cc(Cl)cc(Cl)c2c1Cl	3,4,6-Trichloro-1-benzothiophene-2-carboxylic acid	249

The last 6 entries again:

SMILES	name	mp (°C)
O=C(O)CNc1ccc(Cl)cc1	N-(4-Chlorophenyl)glycine	143
CC1CCN(c2ccc([N+](=O)[O-])cc2C(=O)O)CC1	2-(4-methylpiperidin-1-yl)-5-nitrobenzoic acid	161
CCCCC[C@H]1CC[C@H](c2ccc(CCC)cc2)CC1	Benzene, 1-(trans-4-pentylcyclohexyl)-4-propyl-	-9.6
C/C=C/c1ccc(OC(C)=O)c(OC)c1	Isoeugenyl acetate, (E)-	81
CCCCn1c(N)cc(=O)[nH]c1=O	6-Amino-1-butyl-1H-pyrimidine-2,4-dione	239
O=C(O)c1sc2cc(Cl)cc(Cl)c2c1Cl	3,4,6-Trichloro-1-benzothiophene-2-carboxylic acid	249